The assay deals with p53/hDM2 interaction (Homo sapiens, UniProt Q00987). Briefly: fluorescence anisotropy competition assay p53/hDM2. The class given is binding. The settings on record: read-out: p53/hDM2 IC50. The source says:
At first the lower inhibitory potency of both HIF-1α794–826 and hybrid 2 in comparison to helix mimetic 1 (9.2(±0.9) μM) which we determined previously,[33] might seem counterintuitive. One explanation that might account for this observation is that there may be a non-specific component to PPI inhibition associated with the aromatic oligoamide helix mimetic 1 (supported in part by a non-unity Hill co-efficient for the curve fitting, a property not observed for 2). […] We therefore performed further biophysical analysis. Although we illustrated previously that inhibition of HIF-1α/p300 by 1 was specific to the scaffold and selective in comparison to the eIF4E/4G interaction,[33] we expanded the range of assays here. […] Thus, by adding native amino acid residues from the HIF-1α sequence to the core helix mimetic 1 in hybrid 2, the specificity and selectivity of binding towards target interactions was improved.
Fig. 3 Biophysical screening of helix mimetic 1 and hybrid 2 to profile selectivity; FA competition data for inhibition of p53/hDM2.

Chains of the proteins cited; added tags and fusions are not shown.
UniProt Q00987, whole entry, looked up: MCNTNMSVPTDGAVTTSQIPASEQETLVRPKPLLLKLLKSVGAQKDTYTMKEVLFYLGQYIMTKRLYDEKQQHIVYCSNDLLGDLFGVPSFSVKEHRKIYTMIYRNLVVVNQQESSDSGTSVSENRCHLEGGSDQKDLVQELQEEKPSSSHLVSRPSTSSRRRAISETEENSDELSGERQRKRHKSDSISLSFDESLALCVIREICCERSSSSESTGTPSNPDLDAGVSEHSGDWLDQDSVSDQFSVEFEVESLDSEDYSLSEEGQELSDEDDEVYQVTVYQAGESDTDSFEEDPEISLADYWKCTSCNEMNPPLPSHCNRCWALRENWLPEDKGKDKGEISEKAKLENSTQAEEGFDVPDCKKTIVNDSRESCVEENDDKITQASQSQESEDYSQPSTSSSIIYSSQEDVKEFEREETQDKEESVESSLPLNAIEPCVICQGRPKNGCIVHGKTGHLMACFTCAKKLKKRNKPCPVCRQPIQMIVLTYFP

Take `CC(C)COc1cc(C(=O)Nc2ccc(C(=O)Nc3ccc(C(=O)O)cc3OC(C)C)cc2OCC(C)C)ccc1N`: the IC50 came out at 16.4 µM.
